Earlier results as cited in patent US4528290A, “Stimulating dopamine D-1 receptors” (Eli Lilly and Company, priority 1984, dated 1985).

Tested on: cyclic AMP levels in striatal tissue (D-1/D-2 receptors)
Settings: Stoof and Kebabian, cited from earlier work

Structure (SMILES): CCCN1CCC[C@@H]2Cc3[nH]ncc3C[C@H]21 (relative stereo) [Racemate, trans-(±)-5-n-propyl-4,4a,5,6,7,8,8a,9-octahydro-1H(and 2H)-pyrazolo[4,3-g]quinoline]
- reduction of the effect of SKF38393 in increasing cyclic AMP levels (FIG. 3 page 368): 57±8%
- effect on cyclic AMP levels (chart G page 367): lower cyclic AMP levels
